Results as given in PubChem BioAssay AID662 (National Center for Advancing Translational Sciences (NCATS), 2007).
Where “and” joins values, the source holds several entries; their conditions need not be identical. Equal values may be shown once. This is a selection; strong and weak results do not stand in their true shares. Inconclusive results are not listed. Calls of active or inactive are those of the source. Calls come from the whole dose curve; as a rule, active = well fitted activation curve with a large enough effect in the signal ratio, with a control signal flat (not every such curve was filed as active); inconclusive = small, poorly fitted or top-dose-only effect, or effect the other way, or a change in a side signal; inactive = flat fitted curve, though single readings scatter; the % refers to the signal ratio.

Experiment: Cell signaling CRE-BLA (Fsk stim); note: % of control where 0% means no effect
Details: CHO CRE-bla reporter (cAMP response element driving beta-lactamase), forskolin EC10, beta-lactamase ratio
From the text: NIH Molecular Libraries Screening Centers Network [MLSCN]
NIH Chemical Genomics Center [NCGC]
Assay Provider: Marshall W. Nirenberg, U.S. National heart lung & blood institute
Memories persist for different lengths of time, from seconds or minutes to a lifetime. There are two kinds of memory: short-term memory (STM) and long-term memory (LTM). STM lasts for minutes to hours, which maybe mediated by modifications of molecules involved in synaptic functions. LTM lasts for days or longer, and may be due to the formation of new synapses or restructuring of existing synapses. LTM, but not STM, requires gene transcription and synthesis of proteins. CREB (cyclic-AMP Responsive Element Binding Protein) is one of the candidates plays an important role for enhancement of some types of LTM. CREB, a family of transcription factors, regulates the transcription of genes containing cAMP Responsive Elements (CRE). CRE is a nucleotide sequence often found in the promoter regions of genes that are binding sites for CREB.
Using a beta-lactamase reporter-gene under control of cAMP responsive element, a cell-based assay [CellSensor(TM) CRE-bla CHO developed by Invitrogen Corp.] was used to measure forskolin-induced signaling. Library compounds were measured for their ability to modulate positively or negatively the action of EC10 NKH 477, a water soluble forskolin, on reporter gene activity. Compounds were screened in a titration series in 1536-well format. Positive and negative modulators were identified based on the AC50 values derived from the screening data.
NCGC Assay Protocol Summary
2000 cells/5uL in Opti-MEM medium containing 0.5% dialyzed FBS, 0.1 mM NEAA, 1 mM sodium pyruvate and 10 mM HEPES was dispensed into 1536-well plates and cells were cultured at 37 degrees Celsius overnight. […] And then the plates were incubated at 37 degrees Celsius for 3 hours. 1 uL of CCF4-dye mixture was added to each well. After incubated at room temperature for 2 hours the plates were measured on an EnVision plate reader at Excitation 405nm, Emission1=460nm and Emission 2=530nm. The %Activity was determined from the ratio of 460nm/530nm.
Keywords: NIH Roadmap, MLSCN, MLSMR, qHTS, NCGC, CRE, beta-lactamase reporter-gene assay.

[1] = at 38.2 µM (top of the series) unless noted

Compound: c1nnnn1CCn1cnnn1
- activity change, negative = inhibition [1]: inactive: -6.13%

Compound: O=P(Nc1nccs1)(c1ccccc1)c1ccccc1
- activity change, negative = inhibition [1]: inactive: 1.14%

Compound: C[C@@H](O)COc1ccc([As](=O)(O)O)cc1N
- activity change, negative = inhibition [1]: inactive: 2.43% [at 7.6 µM]

Compound: CN1CCC[C@H](OC(=O)C(c2ccccc2)c2ccccc2)C1
- activity change, negative = inhibition [1]: inactive: 3.5% [at 7.6 µM]

Compound: [N-]=[N+]=Nc1ccc([As](=O)(O)O)cc1
- activity change, negative = inhibition [1]: inactive: 8.14% [at 7.6 µM]

Compound: O=C(OC1CN2CCC1CC2)c1cccc(Cl)c1 (centres undefined)
- activity change, negative = inhibition [1]: inactive: -12.5%

Compound: COC(=O)c1cc2c(s1)N=C(c1ccccc1)N(C)P2(=O)N1CCOCC1 (centres undefined)
- activity change, negative = inhibition [1]: inactive: -8.7%

Compound: O=P1(Nc2nc3ccc(Cl)cc3s2)COc2ccccc2O1 (centres undefined)
- activity change, negative = inhibition [1]: inactive: -6.1%

Compound: O=[N+]([O-])c1ccc(C[As](=O)(O)O)cc1
- activity change, negative = inhibition [1]: inactive: 7.73% [at 7.6 µM]

Compound: CN(C(=O)Cc1ccc(Cl)c(Cl)c1)[C@H]1CCCC[C@@H]1N1CCCC1
- activity change, negative = inhibition [1]: inactive: -15% and inactive: -17.9%

Compound: C(Cc1nn[nH]n1)c1nn[nH]n1
- activity change, negative = inhibition [1]: inactive: -0.38% [at 7.6 µM]

Compound: [N-]=[N+]=NCC(O)CN=[N+]=[N-] (centres undefined)
- activity change, negative = inhibition [1]: inactive: 0.115% [at 7.6 µM]

Compound: CN(C(=O)Cc1ccccc1)[C@@H]1CC[C@@]2(CCCO2)C[C@H]1N1CCCC1
- activity change, negative = inhibition [1]: inactive: -9.01%

Compound: O=C(COc1ccccc1)OC1CN2CCC1CC2 (centres undefined)
- activity change, negative = inhibition [1]: inactive: -12.2%

Compound: O=C(O)[C@@H](O)c1ccc([As](=O)(O)O)cc1
- activity change, negative = inhibition [1]: inactive: 6.96% [at 7.6 µM]

Compound: CN(N=O)C(=N)N[N+](=O)[O-]
- activity change, negative = inhibition [1]: inactive: 14.9%

Compound: O=[As]c1ccc(S(=O)(=O)NCCO)cc1 (centres undefined)
- activity change, negative = inhibition [1]: inactive: 1.3% [at 7.6 µM]

Compound: [N-]=[N+]=NCC(N)=O
- activity change, negative = inhibition [1]: inactive: 7.56% [at 7.6 µM]

Compound: NC(=O)Nc1cc([As](=O)(O)O)cc(I)c1O
- activity change, negative = inhibition [1]: inactive: -1.87% [at 7.6 µM]

Compound: O=C(OC1CN2CCC1CC2)C12CC3CC(CC(C3)C1)C2 (centres undefined)
- activity change, negative = inhibition [1]: inactive: 6.56%

Compound: CN(C(=O)Cc1ccc(Cl)c(Cl)c1)[C@@H]1CC[C@@]2(CCCO2)C[C@H]1N1CCCC1
- activity change, negative = inhibition [1]: inactive: -3.73%

Compound: NS(=O)(=O)Cc1ccc([As](=O)(O)O)cc1
- activity change, negative = inhibition [1]: inactive: 3.36% [at 7.6 µM]

Compound: O=C(CC(=O)c1ccccc1)O[C@H]1CN2CCC1CC2
- activity change, negative = inhibition [1]: inactive: -5.86% [at 7.6 µM]

Compound: O=[As](O)(O)c1ccc([As](=O)(O)O)cc1
- activity change, negative = inhibition [1]: inactive: 4.49% [at 7.6 µM]

Compound: CCOP1(=S)c2c(C)nn(CCC#N)c2N=C(c2ccccc2F)N1C (centres undefined)
- activity change, negative = inhibition [1]: inactive: 11.8%

Compound: CCOP1(=S)c2c(C)nn(CCC#N)c2N=C(c2ccc(F)cc2)N1C (centres undefined)
- activity change, negative = inhibition [1]: inactive: 20.2%

Compound: NC(=O)Nc1ccc([As](=O)(O)O)cc1
- activity change, negative = inhibition (at 17.1 µM (top of the series)): inactive: -0.394%
- activity change, negative = inhibition (at 38.2 µM (top of the series)): inactive: -1.54%

Compound: Cc1nn(-c2ccccc2)c2c1P(=O)(N1CCOCC1)N(C)C(c1ccccc1)=N2 (centres undefined)
- activity change, negative = inhibition [1]: inactive: -7.62%

Compound: O=P1(Nc2ncccn2)COc2ccccc2OC1
- activity change, negative = inhibition [1]: inactive: 12.2%

Compound: Clc1n[nH]nc1-c1nn[nH][15n]1
- activity change, negative = inhibition [1]: inactive: -0.781%

Compound: O=P1(Nc2ccccn2)COc2ccccc2OC1
- activity change, negative = inhibition [1]: inactive: 4.41%

Compound: CN(CCCl)Cc1cc(Cl)c(NC2=NCCN2)c(Cl)c1
- activity change, negative = inhibition [1]: inactive: -3.26%

Compound: CN(C(=O)Cc1ccc(Cl)c(Cl)c1)[C@@H]1CCCC[C@H]1N1CCCC1
- activity change, negative = inhibition [1]: inactive: -2.36% [middle of 4 runs]
